Screening results: PubChem, Broad Institute
UUG fidelity = modulators of yeast start codon fidelity, primary screen, whole organism, S. cerevisiae, single point, plate reader. S. cerevisiae UUG-firefly luciferase reporter, luminescence/redox ratio. activity score, % at 18.7 µM. hit rate 0.13% among 350,000;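 active = replicate mean at a twofold rise or more, about +100% in these data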;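 also: firefly luciferase made from a UUG start codon reports start codon fidelity; reporter light over untreated wells divided by growth signal over untreated wells; some hits fall short of that in this replicate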
Rtt109 HAT inh = C. albicans Rtt109 histone acetyltransferase inhibition; purified Rtt109/Vps75, ThioGlo CoA-SH fluorescence, 4 h; inhibition, % at 34.9 µM; AID 540336; 330,000 compounds, 0.16% hits;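 active = inhibition of at least 50% in every replicate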
CDK5 p35 inh = CDK5/p35 (human) kinase inhibition. 330,000 compounds, 0.01% hits. inhibition, % at 10 µM. AID 488839. Recombinant CDK5/p35, ADP-Glo luminescence, 60 min. Q00535+Q15078;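 active = highest replicate inhibition of at least 50% and at least 75% of replicates reaching 50%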;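 also: plate controls were DMSO neutral control for no effect and GW8510 at 10 µM for full effect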
Cneo AK release = causes C. neoformans cell lysis; adenylate kinase release luminescence, 4 h; normalised: neutral wells 0, clomiphene wells 100; lysis activity, % at 15 µM; 360,000 compounds, 0.2% hits; AID 651654;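 active = mean lysis activity across replicates of at least 80%, whatever share of replicates individually reach that level; inactive = mean lysis activity below 80%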
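Assay system: Cryptococcus neoformans yeast cells / Dosing: single-point compound dose / Timing: 4 h at 37 °C static, read 1 h later / Measured by: luminescence of released adenylate kinase using an AK detection reagent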
Statin myotox sup = suppression of simvastatin myotoxicity | C2C12 myotubes + simvastatin, ATP luminescence, 48 h; scaled: DMSO 0, geranylgeraniol control 100 | rescue of ATP level, % at 7.49 µM | 330,000 compounds, 0.78% hits;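 active = mean ATP rescue above about 67%, or every replicate alone reaching that limit, limit read from the data, passing the limit was not always enough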;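 also: myotubes were challenged with 10 µM simvastatin during compound exposure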
An asterisk follows results filed as active. The list is not random: actives were taken first. Their share in the collection is about 1%.

Sample of the layout (two entries):
Results for CC(=O)N(C)C[C@@H]1OCc2ccccc2-c2ccccc2C(=O)N([C@@H](C)CO)C[C@@H]1C ?
Cneo AK release: 0.1

What do the screens show for `CC(C)C[C@H](NC(=O)c1[nH]cnc1C(=O)N[C@@H](Cc1ccccc1)C(=O)OCc1ccccc1)C(=O)OCc1ccccc1`?
UUG fidelity: -5.4; Rtt109 HAT inh: -1.8; CDK5 p35 inh: -0.9; Cneo AK release: -0.1; Statin myotox sup: 136.8*

Results, from the first entry:
Results for CC(=O)N(C)C[C@@H]1OCc2ccccc2-c2ccccc2C(=O)N([C@@H](C)CO)C[C@@H]1C ?
Cneo AK release: 0.1

What do the screens show for `CC(C)C[C@H](NC(=O)c1[nH]cnc1C(=O)N[C@@H](Cc1ccccc1)C(=O)OCc1ccccc1)C(=O)OCc1ccccc1`?
UUG fidelity: -5.4; Rtt109 HAT inh: -1.8; CDK5 p35 inh: -0.9; Cneo AK release: -0.1; Statin myotox sup: 136.8*

How did CC(C)C[C@@H](CNCC(=O)[C@H](Cc1c[nH]c2ccccc12)NC(=O)c1[nH]cnc1C(=O)N[C@@H](C)CN)NC(=O)c1nc[nH]c1C(=O)N[C@@H](Cc1ccccc1)C(=O)O do in these assays?
UUG fidelity: 130.6*; Rtt109 HAT inh: -0.4; CDK5 p35 inh: 1.1; Cneo AK release: 2.9; Statin myotox sup: -6.1

What do the screens show for `CC(C)C[C@H](NC(=O)c1nc[nH]c1C(=O)N[C@@H](CC(C)C)C(=O)OCc1ccccc1)C(=O)OCc1ccccc1`?
UUG fidelity: -10.1; Rtt109 HAT inh: 6.5; CDK5 p35 inh: -0.2; Cneo AK release: 1.3; Statin myotox sup: 7.8

Results for O=C(Nc1ccccc1)Nc1ccc2c(c1)[C@@H]1C[C@H](CC(=O)N3CCCCC3)O[C@H](CO)[C@@H]1O2 ?
UUG fidelity: 13.3; Cneo AK release: 3.5; Statin myotox sup: 3.9

What do the screens show for `CCCC(CCC(=O)Nc1ccn(-c2ccccc2)n1)C(=O)O` (configuration not stated)?
Rtt109 HAT inh: 1.6; CDK5 p35 inh: -0.7

What do the screens show for `CCC(CCC(=O)Nc1ccn(-c2ccccc2)n1)C(=O)O` (configuration not stated)?
UUG fidelity: -9.9; Rtt109 HAT inh: -3.9; CDK5 p35 inh: -2.5; Cneo AK release: 6.2; Statin myotox sup: 120.8*

Results for COc1ccccc1Oc1ccc2c(c1)C(=O)N(c1ccc(O)cc1)C2=O ?
UUG fidelity: -23.3; Rtt109 HAT inh: 1.8; CDK5 p35 inh: -1.1; Cneo AK release: 0.5; Statin myotox sup: 127.5*

What do the screens show for `CC(=O)NC1(C(F)(F)F)NC(=O)N(CCc2ccccc2)C1=O` (configuration not stated)?
UUG fidelity: 4.0; Rtt109 HAT inh: -4.9; CDK5 p35 inh: 0.3; Cneo AK release: 1.7; Statin myotox sup: -18.2

What do the screens show for `CCCCN1C(=O)NC(NC(C)=O)(C(F)(F)F)C1=O` (configuration not stated)?
UUG fidelity: -6.7; Rtt109 HAT inh: 5.7; CDK5 p35 inh: -1.0; Cneo AK release: 2.4; Statin myotox sup: 105.4*

Results for CCOC(=O)c1nn(-c2cccc(OC)c2)c(-c2ccccc2)c1C(=O)c1ccccc1 ?
UUG fidelity: 4.3; Rtt109 HAT inh: 3.1; CDK5 p35 inh: -1.3; Cneo AK release: -1.6; Statin myotox sup: 10.1

How did CCOC(=O)c1nn(-c2cccc(Cl)c2)c(C)c1C(C)=O do in these assays?
UUG fidelity: 2.5; Rtt109 HAT inh: -5.3; CDK5 p35 inh: 2.4; Cneo AK release: 0.4; Statin myotox sup: 123.2*

How did CCOC(=O)Cc1csc(NC(=O)CC)n1 do in these assays?
UUG fidelity: -20.4; Rtt109 HAT inh: -6.7; CDK5 p35 inh: -0.4; Cneo AK release: 1.8; Statin myotox sup: 6.2

Results for CCOC(=O)Cc1csc(NC(=O)CC(C)(C)C)n1 ?
UUG fidelity: -3.6; Rtt109 HAT inh: -2.5; CDK5 p35 inh: -0.9; Cneo AK release: -0.4; Statin myotox sup: 109.5*

What do the screens show for `O=C(Nc1ccc2oc(-c3ccncc3)nc2c1)c1ccc2c(c1)OCCO2`?
Rtt109 HAT inh: 57.2*; CDK5 p35 inh: 0.4

What do the screens show for `O=C(Nc1ccc2oc(-c3ccncc3)nc2c1)c1ccc2c(c1)OCO2`?
Rtt109 HAT inh: 6.5; CDK5 p35 inh: 0.0

What do the screens show for `O=C(CSc1nnc(-c2ccncc2)n1Cc1ccco1)Nc1nc(-c2ccccc2)cs1`?
UUG fidelity: -10.5; Rtt109 HAT inh: -5.3; CDK5 p35 inh: -1.3; Cneo AK release: 0.5; Statin myotox sup: 97.5*

Results for C[C@H](CO)N1C[C@H](C)[C@@H](CN(C)C(=O)c2ccccc2)OCCCC[C@H](C)Oc2ccc(NC(=O)Cc3ccccc3)cc2C1=O ?
UUG fidelity: 8.2; Cneo AK release: -3.2

What do the screens show for `Cn1c(=O)c2c(nc(Oc3ccccc3)n2C)n(C)c1=O`?
UUG fidelity: -11.3; Rtt109 HAT inh: 8.9; CDK5 p35 inh: 1.3; Cneo AK release: 6.6; Statin myotox sup: 141.5*
